Results as given in patent publication US20190382481A1 (Janssen / Centocor, published 2019).

Protein sequences, listed by entry. Tags and fused reporters are not part of them. Chains listed by the source or under a name are the forms on record and can include a tag or linker. Residues count along the entry.
UniProt P20138, 18-364 limits assumed: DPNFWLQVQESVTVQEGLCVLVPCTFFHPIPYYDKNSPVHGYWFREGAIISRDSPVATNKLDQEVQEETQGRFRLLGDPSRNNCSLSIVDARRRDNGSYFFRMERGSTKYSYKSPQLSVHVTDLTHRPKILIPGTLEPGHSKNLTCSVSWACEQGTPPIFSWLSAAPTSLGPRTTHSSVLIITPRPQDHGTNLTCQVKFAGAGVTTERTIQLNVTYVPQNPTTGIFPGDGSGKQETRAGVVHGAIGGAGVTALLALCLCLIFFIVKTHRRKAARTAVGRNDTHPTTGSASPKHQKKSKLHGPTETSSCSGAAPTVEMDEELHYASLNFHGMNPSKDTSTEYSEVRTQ
UniProt P20138, 18-259 limits assumed, form in doubt: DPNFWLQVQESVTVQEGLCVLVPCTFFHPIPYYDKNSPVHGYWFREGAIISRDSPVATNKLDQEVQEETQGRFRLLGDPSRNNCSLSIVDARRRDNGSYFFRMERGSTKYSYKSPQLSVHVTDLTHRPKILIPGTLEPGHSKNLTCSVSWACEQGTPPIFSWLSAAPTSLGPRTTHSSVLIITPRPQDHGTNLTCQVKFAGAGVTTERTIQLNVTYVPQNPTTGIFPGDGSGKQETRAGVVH

What was measured:
[1] = target: T1, Cyno CD33 full length (over-expressed on transduced HEK293F / HEK 293T cells) (cyno); assay: flow cytometry, HEK293F cells expressing cyno CD33
T1 construct: also called cyCD33; cyno CD33 expressing cells
Method: (§1) OMNIRat antibodies identified via immunization, v-region cloned and subsequently expressed and purified were characterized further for binding to CD33 expressing cells and binding to recombinant antigens. The purified antibodies were assessed for binding to stably transfected HEK293F cells expressing human CD33 or cyno CD33 (generation described above) along with the parental HEK293F as negative control. Cells were harvested from tissue culture flasks using non-enzymatic dissociation buffer (Thermo Scientific). The flasks were rinsed twice with PBS and dissociation buffer was added to the flask, and the flask was incubated for 10 minutes at 37° C. until the cells became non-adherent. The cells were centrifuged at 300 g for 5 minutes and resuspended at 1.0×10⁶ cells/ml in staining buffer (Becton Dickinson; Franklin Lakes, N.J.). 50,000 cells/well of each cell type was plated in 50 μl of staining buffer in round bottom plates (Becton Dickinson). 50 μl of 2× concentration test mAb or isotype control was added at 3 dilutions and zero (120 nM, 12 nM, and 1.2 nM and 0 nM), and the resultant solution was incubated 30 min at 4° C. 100 μl staining buffer was added to all wells of each plate, the plates were spun at 300 g for 5 min, the buffer was removed, 200 μl staining buffer was added to all wells of each plate, the plates were spun at 300 g for 5 min, and the buffer was removed. 50 μl of 2 μg/ml of Goat-anti-human Fc AF647 secondary antibody (Jackson Immunoresearch; West Grove, Pa.) was added to all wells of the plates, and the plates were incubated for 30 min at 4° C. 100 μl staining buffer was added to all wells of the plates, the plates were spun at 300 g for 5 min, and the buffer was removed. 200 μl running buffer (running buffer is Staining buffer, 1 mM EDTA, 0.1% Pluronic Acid) was added to all wells of the plates, the plates were spun at 300 g for 5 min, and the buffer was removed. 30 ul running buffer containing Sytox Green live/dead dye (ThermoFisher) was added to all wells with cells and the plates were read on an iQue IntelliCyt flow cytometer. Cells were gated on forward vs. side scatter to eliminate debris, then on singlets and then on live cells which excluded the Sytox stain. Antibody binding was assessed by the mean fluorescence intensity in the AF647 channel.

[2] = target: T2, Cyno CD33 ECD-HSA (cyno); assay: SPRi off-rate screen (IBIS MX96), mAb captured via anti-human Fc, C33W1 as analyte
T2 construct: Cyno CD33 ECD (Genbank printed as XP_0055901381) fused to HSA (C58S) and six-histidine tag; also called C33W1
Method: To begin assessing the biophysical binding properties of the purified mAbs an off-rate screen was performed. 76 OMNIRat anti-CD33 mAbs were tested for binding to recombinant human CD33 ECD-HSA (C33W2) and cyno CD33 ECD-HSA (C33W1) proteins (Janssen production) and the off-rate was measured by IBIS MX96 SPRi array platform (Carterra; Newton, Pa.). […] The sensor chip was transferred to the Continuous Flow Microspotter (CFM) unit to capture each anti-CD33 mAb at 10 μg/ml for 10 minutes. Binding was measured on IBIS SPRi by single cycle kinetics without regeneration. Each antigen concentration series (3 μM in 3 fold dilution series) was sequentially injected from low (0.46 nM) to high concentrations (3 μM) to bind to captured mAbs with an association time of 5 minutes and dissociation time of 15 minutes using PBST (PBS with 0.005% Tween) as running buffer. The raw binding data (.trix file format) were referenced and aligned using SprintX software (Wasatch, Ver 1.9.3.2), then exported (.ibmx file format) to Scrubber software (Ver. 2.0) for 1:1 binding kinetic analyses (Wasatch, version 2.0.0.33) to extract the koff results.

[3] = target: T3, Human CD33 full length (over-expressed on transduced HEK293F cells) (human, UniProt P20138); assay: flow cytometry, HEK293F cells expressing human CD33
T3 construct: also called huCD33; human CD33 expressing cells
Method: as §1

[4] = target: T4, Cyno CD33 ECD-HSA (cynomolgus monkey); assay: ProteOn SPR; mAb captured on anti-human Fc, antigen as analyte; 1:1 fit
T4 construct: Cyno CD33 ECD fused to HSA (C58S) and six-histidine tag; also called C33W1
Method: (§2) The panel of mAbs was then further characterized for full affinity analysis as well as epitope binning. The binding of anti-CD33 mAbs to recombinant human CD33 ECD-HSA (C33W2) and cyno CD33 ECD-HSA (C33W1) was measured by ProteOn SPR (Bio-Rad). […] Human and cyno CD33-HSA proteins at 0.3 μM concentration in 3-fold dilution series of 5 concentrations flew in as analyte to bind to captured mAbs in the horizontal orientation. A buffer sample was also injected in the 6th channel to monitor the dissociation of captured mAb and baseline stability. […] The raw biding data were processed by double referencing after subtracting the response data from: 1) the inter-spot to correct for the non-specific interactions between the Ag and the empty chip surface; 2) the buffer channel to correct for baseline drifting due to the dissociation of captured mAb surface over time.

[5] = target: T5, Human CD33 ECD-HSA (human, UniProt P20138, in part); assay: as above
T5 construct: Human CD33 ECD (Uniprot P20138) fused at the C-terminus to monomeric HSA (C58S) and a six-histidine tag; also called C33W2; huCD33 ECD-HSA; not shown: HSA (C58S) carrier, its junction or linker to the ECD, and the layout of the His tag
Method: as §2

Row | Binder | MFI at 0 nM mAb (background) [1] [MFI] | MFI at 0.6 nM mAb [1] [MFI] | MFI at 6 nM mAb [1] [MFI] | MFI at 60 nM mAb [1] [MFI] | koff [2] [s⁻¹] | MFI at 0 nM mAb (background) [3] [MFI] | MFI at 0.6 nM mAb [3] [MFI] | MFI at 6 nM mAb [3] [MFI] | MFI at 60 nM mAb [3] [MFI] | Kd [4] [nM] | koff [4] [s⁻¹] | kon [4] [M⁻¹ s⁻¹] | Kd [5] [nM]
1 | C33B64 (antibody, human IgG1, lambda, V domains shown, huIgG1 F405L; OMNIRat campaign; also called C33H52/N46L109) VH: QLQLQESGPGLVKPSETLSLTCTVSGGSIRGSSYYWGWVRQPPGKGLEWIGSIYSSGNTYYNPSLKSRVTISVDTSKNQFSLKLSSVTAADTALYYCARLGSLVVVPAAMSFDYWGQGTLVTVSS VL: not shown | 99.8 | 3100 | 9690 | 21100 | 0.00121 | 115 | 7560 | 54100 | 200000 | – | – | – | –
2 | C33B75 (antibody, human IgG1, lambda, V domains shown, huIgG1 F405L; HC C33H70, LC N46L109; also called C33F80) VH: QLQLQESGPGLVKPSETLSLTCTVSGGSIRGSSYYWGWIRQPPGKGLEWIGSIYSSGNTYYNPSLKSRVTISVDTSKNQFSLKLSSVTAADTAVYYCARLGSLVVVPAAMSFDYWGQGTLVTVSS VL: not shown | – | – | – | – | – | – | – | – | – | 2.15 | 0.00132 | 616000 | –

Further lines, results first:

Row | MFI at 0 nM mAb (background) [1] [MFI] | MFI at 0.6 nM mAb [1] [MFI] | MFI at 6 nM mAb [1] [MFI] | MFI at 60 nM mAb [1] [MFI] | koff [2] [s⁻¹] | MFI at 0 nM mAb (background) [3] [MFI] | MFI at 0.6 nM mAb [3] [MFI] | MFI at 6 nM mAb [3] [MFI] | MFI at 60 nM mAb [3] [MFI] | Kd [4] [nM] | koff [4] [s⁻¹] | kon [4] [M⁻¹ s⁻¹] | Kd [5] [nM] | Binder
3 | 124 | 1710 | 5580 | 12200 | 0.0012 | 95.9 | 4520 | 29600 | 164000 | – | – | – | – | C33B75 (antibody, human IgG1, lambda, V domains shown, huIgG1 F405L; OMNIRat campaign; also called C33H70/N46L109) VH: QLQLQESGPGLVKPSETLSLTCTVSGGSIRGSSYYWGWIRQPPGKGLEWIGSIYSSGNTYYNPSLKSRVTISVDTSKNQFSLKLSSVTAADTAVYYCARLGSLVVVPAAMSFDYWGQGTLVTVSS VL: not shown
4 | – | – | – | – | – | – | – | – | – | 1.71 | 0.00101 | 590000 | 5.1 | C33B64 (antibody, human IgG1, lambda, V domains shown, huIgG1 F405L; HC C33H52, LC N46L109; also called C33F69) VH: QLQLQESGPGLVKPSETLSLTCTVSGGSIRGSSYYWGWVRQPPGKGLEWIGSIYSSGNTYYNPSLKSRVTISVDTSKNQFSLKLSSVTAADTALYYCARLGSLVVVPAAMSFDYWGQGTLVTVSS VL: not shown
